Target: T1, AT2 receptor (Homo sapiens, UniProt P50052)
T1 construct: expressed in transfected cells; host or cells: HEK-293, transient transfection with PolyFect
T1 sequence (P50052 1-363): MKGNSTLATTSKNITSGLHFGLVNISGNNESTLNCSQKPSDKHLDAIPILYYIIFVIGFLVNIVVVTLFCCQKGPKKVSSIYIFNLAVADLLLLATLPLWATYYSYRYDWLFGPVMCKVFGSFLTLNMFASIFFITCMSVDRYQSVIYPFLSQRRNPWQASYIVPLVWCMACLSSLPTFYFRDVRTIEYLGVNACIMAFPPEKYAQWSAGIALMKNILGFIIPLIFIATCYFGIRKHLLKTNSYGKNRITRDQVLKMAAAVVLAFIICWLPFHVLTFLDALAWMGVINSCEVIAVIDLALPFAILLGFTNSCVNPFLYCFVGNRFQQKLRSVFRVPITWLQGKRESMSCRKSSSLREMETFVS
Experiment: cAMP in AT2-transfected HEK293 cells
Type: cell-based
Settings: PTX and SQ-22536 inhibitor experiments
Procedure: Human embryonic kidney (HEK-293) cells were cultured in DMEM medium supplemented with FBS (10%), HEPES buffer (1%), sodium pyruvate (1%), and L-glutamine (1%) and maintained under standard conditions (5% CO2, 95% humidity and 37° C.). Cells were cultured in 100 mm cell culture dishes and seeded in 48-well plates at a density of 75,000 cells per well. The next day, HEK-293 cells were transfected using a transient transfection procedure following the manufacturer's instructions. […] The protein concentration was determined using Pierce BCA Protein Assay Kit according to the manufacturer's protocol (Thermo Fisher Scientific, Waltham, Mass., USA).
cAMP concentration in cell lysates was determined using Direct cAMP ELISA kit (Enzo Life Sciences Ltd., Exeter, United Kingdom). […] The enzymatic reaction was stopped by adding 50 μl of Stop Solution, and the absorbance at 405 nm was measured immediately. The cAMP concentration was determined from non-linear standard curve using GraphPad Prism 6.0 software.
AT2-transfected HEK293 cells were stimulated for 15 min with a range of concentrations (10^−14 to 10^−5 M) of C21, Ang II or PBS and the concentration of cAMP was measured in accordance with the methodology provided. […]

Angiotensin II [Ang II, reference compound]
G-protein activation via the AT2 receptor: cannot activate G-proteins via the receptor
